The values below come from patent US12318403B2, “2′3′-cyclic dinucleotides and prodrugs thereof” (INSTITUTE OF ORGANIC CHEMISTRY AND BIOCHEMISTRY ASCR, V.V.I., priority 2019, dated 2025).

The chains behind the UniProt entries cited, without tags or fusion partners.
UniProt Q86WV6, whole entry H232R: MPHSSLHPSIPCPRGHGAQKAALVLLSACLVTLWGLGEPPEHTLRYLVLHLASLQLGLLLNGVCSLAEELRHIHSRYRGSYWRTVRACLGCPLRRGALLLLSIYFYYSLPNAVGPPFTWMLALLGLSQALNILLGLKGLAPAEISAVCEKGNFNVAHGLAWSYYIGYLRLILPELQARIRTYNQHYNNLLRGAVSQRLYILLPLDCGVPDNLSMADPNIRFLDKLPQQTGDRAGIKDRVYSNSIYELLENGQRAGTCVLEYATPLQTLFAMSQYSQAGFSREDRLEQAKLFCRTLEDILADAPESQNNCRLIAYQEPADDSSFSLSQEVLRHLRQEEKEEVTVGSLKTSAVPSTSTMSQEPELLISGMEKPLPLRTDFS

The test has as its target human wild type STING (WT STING) (Homo sapiens, UniProt Q86WV6, H232R). Nature of the test: 293T WT STING standard reporter assay. Format: cell-based. The following applies: 293T WT STING EC50, 293T wtSTING-FL cells; standard reporter assay without digitonin; 7 hours; ISRE firefly luciferase. (Reporter assays use an easily measured gene product as a stand-in for the process of interest.)
Usually EC50 stands for the midpoint of the concentration-response curve. Consider `CCCCCCCCCC(=O)OCSP1(=O)OC[C@H]2O[C@@H](n3cnc4c(N)ncnc43)[C@H](F)[C@@H]2OCP(=O)(O)OC[C@H]2O[C@@H](n3cnc4c(=O)[nH]cnc43)[C@H](O1)[C@@H]2F` (single isomer, unassigned) [Compound 75b], for which it took 100 nM to reach a half-maximal effect (EC50).
`CCCCCCCCCCCCOC(=O)OCSP1(=O)OC[C@H]2O[C@@H](n3cnc4c(N)ncnc43)[C@H](F)[C@@H]2OCP(=O)(O)OC[C@H]2O[C@@H](n3cnc4c(=O)[nH]cnc43)[C@H](O1)[C@@H]2F` (stereo partly drawn) [Compound 58b, {[(1S,6R,8R,9R,10R,16R,18R,19R)-8-(6-amino-9H-purin-9-yl)-9,19-difluoro-13-hydroxy-3,13-dioxo-18-(6-oxo-6,9-dihydro-1H-purin-9-yl)-2,4,7,11,14,17-hexaoxa-3λ^5,13λ^5-diphosphatricyclo[14.2.1.0^6,10]nonadecan-3-yl]sulfanyl}methyl dodecyl carbonate] returned an EC50 of 80 nM.
`CCCCCCCCCCCCOC(=O)OCSP1(=O)OC[C@H]2O[C@@H](n3cnc4c(N)ncnc43)[C@H](F)[C@@H]2OCP(=O)(O)OC[C@H]2O[C@@H](n3cnc4c(=O)[nH]c(N)nc43)[C@H](O1)[C@@H]2F` (stereo partly drawn) [Compound 59b, {[(1S,6R,8R,9R,10R,16R,18R,19R)-18-(2-amino-6-oxo-6,9-dihydro-1H-purin-9-yl)-8-(6-amino-9H-purin-9-yl)-9,19-difluoro-13-hydroxy-3,13-dioxo-2,4,7,11,14,17-hexaoxa-3λ^5,13λ^5-diphosphatricyclo[14.2.1.0^6,10]nonadecan-3-yl]sulfanyl}methyl dodecyl carbonate] registered an EC50 of 80 nM. That is a double-digit nanomolar value.
As to `CCCCCC(=O)Oc1ccc(C(=O)OCSP2(=O)OC[C@H]3O[C@@H](n4cnc5c(N)ncnc54)[C@H](F)[C@@H]3OCP(=O)(O)OC[C@H]3O[C@@H](n4cnc5c(=O)[nH]c(N)nc54)[C@H](O2)[C@@H]3F)cc1` (stereo partly drawn) [Compound 60b, {[(1S,6R,8R,9R,10R,16R,18R,19R)-18-(2-amino-6-oxo-6,9-dihydro-1H-purin-9-yl)-8-(6-amino-9H-purin-9-yl)-9,19-difluoro-13-hydroxy-3,13-dioxo-2,4,7,11,14,17-hexaoxa-3λ^5,13λ^5-diphosphatricyclo[14.2.1.0^6,10]nonadecan-3-yl]sulfanyl}methyl 4-(hexanoyloxy)benzoate], the midpoint of the response, the EC50, lay at 400 nM.
Take `CC(C)(C)C(=O)OCOc1ccc(C(=O)OCSP2(=O)OC[C@H]3O[C@@H](n4cnc5c(N)ncnc54)[C@H](F)[C@@H]3OCP(=O)(O)OC[C@H]3O[C@@H](n4cnc5c(=O)[nH]cnc54)[C@H](O2)[C@@H]3F)cc1` (stereo partly drawn) [Compound 61b, {[(1S,6R,8R,9R,10R,16R,18R,19R)-8-(6-amino-9H-purin-9-yl)-9,19-difluoro-13-hydroxy-3,13-dioxo-18-(6-oxo-6,9-dihydro-1H-purin-9-yl)-2,4,7,11,14,17-hexaoxa-3λ^5,13λ^5-diphosphatricyclo[14.2.1.0^6,10]nonadecan-3-yl]sulfanyl}methyl 4-{[(2,2-dimethylpropanoyl)oxy]methoxy}benzoate]: the EC50 came out at 4000 nM. Against the preceding compound, the EC50 is about 10-fold higher.
For `CC(C)(C)C(=O)OCOc1ccc(C(=O)OCSP2(=O)OC[C@H]3O[C@@H](n4cnc5c(N)ncnc54)[C@H](F)[C@@H]3OCP(=O)(O)OC[C@H]3O[C@@H](n4cnc5c(=O)[nH]c(N)nc54)[C@H](O2)[C@@H]3F)cc1` (stereo partly drawn) [Compound 62b, {[(1S,6R,8R,9R,10R,16R,18R,19R)-18-(2-amino-6-oxo-6,9-dihydro-1H-purin-9-yl)-8-(6-amino-9H-purin-9-yl)-9,19-difluoro-13-hydroxy-3,13-dioxo-2,4,7,11,14,17-hexaoxa-3λ^5,13λ^5-diphosphatricyclo[14.2.1.0^6,10]nonadecan-3-yl]sulfanyl}methyl 4-{[(2,2-dimethylpropanoyl)oxy]methoxy}benzoate], the EC50 was 300 nM.
Compound `CCCCCCCC(=O)OCSP1(=O)OC[C@H]2O[C@@H](n3cnc4c(N)ncnc43)[C@H](F)[C@@H]2OCP(=O)(O)OC[C@H]2O[C@@H](n3cnc4c(=O)[nH]cnc43)[C@H](O1)[C@@H]2F` (stereo partly drawn) [Compound 63b, {[(1S,6R,8R,9R,10R,16R,18R,19R)-8-(6-amino-9H-purin-9-yl)-9,19-difluoro-13-hydroxy-3,13-dioxo-18-(6-oxo-6,9-dihydro-1H-purin-9-yl)-2,4,7,11,14,17-hexaoxa-3λ^5,13λ^5-diphosphatricyclo[14.2.1.0^6,10]nonadecan-3-yl]sulfanyl}methyl octanoate] gave an EC50 of 600 nM.
To `CCCCCC(=O)OCSP1(=O)OC[C@H]2O[C@@H](n3cnc4c(N)ncnc43)[C@H](F)[C@@H]2OCP(=O)(O)OC[C@H]2O[C@@H](n3cnc4c(=O)[nH]cnc43)[C@H](O1)[C@@H]2F` (stereo partly drawn) [Compound 65b, {[(1S,6R,8R,9R,10R,16R,18R,19R)-8-(6-amino-9H-purin-9-yl)-9,19-difluoro-13-hydroxy-3,13-dioxo-18-(6-oxo-6,9-dihydro-1H-purin-9-yl)-2,4,7,11,14,17-hexaoxa-3λ^5,13λ^5-diphosphatricyclo[14.2.1.0^6,10]nonadecan-3-yl]sulfanyl}methyl hexanoate] belongs 1600 nM; to `CCCCCCCCCCCCCCCCCC(=O)OCSP1(=O)OC[C@H]2O[C@@H](n3cnc4c(N)ncnc43)[C@H](F)[C@@H]2OCP(=O)(O)OC[C@H]2O[C@@H](n3cnc4c(=O)[nH]cnc43)[C@H](O1)[C@@H]2F` (stereo partly drawn) [Compound 66b, {[(1S,6R,8R,9R,10R,16R,18R,19R)-8-(6-amino-9H-purin-9-yl)-9,19-difluoro-13-hydroxy-3,13-dioxo-18-(6-oxo-6,9-dihydro-1H-purin-9-yl)-2,4,7,11,14,17-hexaoxa-3λ^5,13λ^5-diphosphatricyclo[14.2.1.0^6,10]nonadecan-3-yl]sulfanyl}methyl octadecanoate], 40 nM; to `CCCCCCOC(=O)OCSP1(=O)OC[C@H]2O[C@@H](n3cnc4c(N)ncnc43)[C@H](F)[C@@H]2OCP(=O)(O)OC[C@H]2O[C@@H](n3cnc4c(=O)[nH]cnc43)[C@H](O1)[C@@H]2F` (stereo partly drawn) [Compound 67b, {[(1S,6R,8R,9R,10R,16R,18R,19R)-8-(6-amino-9H-purin-9-yl)-9,19-difluoro-13-hydroxy-3,13-dioxo-18-(6-oxo-6,9-dihydro-1H-purin-9-yl)-2,4,7,11,14,17-hexaoxa-3λ^5,13λ^5-diphosphatricyclo[14.2.1.0^6,10]nonadecan-3-yl]sulfanyl}methyl hexyl carbonate], 3800 nM.
In turn, `CCCCCCCCOC(=O)OCSP1(=O)OC[C@H]2O[C@@H](n3cnc4c(N)ncnc43)[C@H](F)[C@@H]2OCP(=O)(O)OC[C@H]2O[C@@H](n3cnc4c(=O)[nH]cnc43)[C@H](O1)[C@@H]2F` (stereo partly drawn) [Compound 70b, {[(1S,6R,8R,9R,10R,16R,18R,19R)-8-(6-amino-9H-purin-9-yl)-9,19-difluoro-13-hydroxy-3,13-dioxo-18-(6-oxo-6,9-dihydro-1H-purin-9-yl)-2,4,7,11,14,17-hexaoxa-3λ^5,13λ^5-diphosphatricyclo[14.2.1.0^6,10]nonadecan-3-yl]sulfanyl}methyl octyl carbonate] registered an EC50 of 900 nM.
The result for `CCCCCCCCCCOC(=O)OCSP1(=O)OC[C@H]2O[C@@H](n3cnc4c(N)ncnc43)[C@H](F)[C@@H]2OCP(=O)(O)OC[C@H]2O[C@@H](n3cnc4c(=O)[nH]cnc43)[C@H](O1)[C@@H]2F` (stereo partly drawn) [Compound 71b, {[(1S,6R,8R,9R,10R,16R,18R,19R)-8-(6-amino-9H-purin-9-yl)-9,19-difluoro-13-hydroxy-3,13-dioxo-18-(6-oxo-6,9-dihydro-1H-purin-9-yl)-2,4,7,11,14,17-hexaoxa-3λ^5,13λ^5-diphosphatricyclo[14.2.1.0^6,10]nonadecan-3-yl]sulfanyl}methyl decyl carbonate] reads 200 nM.
Regarding `CCCCCCCCCCCCCCOC(=O)OCSP1(=O)OC[C@H]2O[C@@H](n3cnc4c(N)ncnc43)[C@H](F)[C@@H]2OCP(=O)(O)OC[C@H]2O[C@@H](n3cnc4c(=O)[nH]cnc43)[C@H](O1)[C@@H]2F` (stereo partly drawn) [Compound 72b, {[(1S,6R,8R,9R,10R,16R,18R,19R)-8-(6-amino-9H-purin-9-yl)-9,19-difluoro-13-hydroxy-3,13-dioxo-18-(6-oxo-6,9-dihydro-1H-purin-9-yl)-2,4,7,11,14,17-hexaoxa-3λ^5,13λ^5-diphosphatricyclo[14.2.1.0^6,10]nonadecan-3-yl]sulfanyl}methyl tetradecyl carbonate], the EC50 was found to be 80 nM.
The compound `CCCCCCCCCCCCCCCCOC(=O)OCSP1(=O)OC[C@H]2O[C@@H](n3cnc4c(N)ncnc43)[C@H](F)[C@@H]2OCP(=O)(O)OC[C@H]2O[C@@H](n3cnc4c(=O)[nH]cnc43)[C@H](O1)[C@@H]2F` (stereo partly drawn) [Compound 73b, {[(1S,6R,8R,9R,10R,16R,18R,19R)-8-(6-amino-9H-purin-9-yl)-9,19-difluoro-13-hydroxy-3,13-dioxo-18-(6-oxo-6,9-dihydro-1H-purin-9-yl)-2,4,7,11,14,17-hexaoxa-3λ^5,13λ^5-diphosphatricyclo[14.2.1.0^6,10]nonadecan-3-yl]sulfanyl}methyl hexadecyl carbonate] yielded an EC50 of 60 nM.
The result for `CCCCCCCCCCCCCCCCCCOC(=O)OCSP1(=O)OC[C@H]2O[C@@H](n3cnc4c(N)ncnc43)[C@H](F)[C@@H]2OCP(=O)(O)OC[C@H]2O[C@@H](n3cnc4c(=O)[nH]cnc43)[C@H](O1)[C@@H]2F` (stereo partly drawn) [Compound 74b, {[(1S,6R,8R,9R,10R,16R,18R,19R)-8-(6-amino-9H-purin-9-yl)-9,19-difluoro-13-hydroxy-3,13-dioxo-18-(6-oxo-6,9-dihydro-1H-purin-9-yl)-2,4,7,11,14,17-hexaoxa-3λ^5,13λ^5-diphosphatricyclo[14.2.1.0^6,10]nonadecan-3-yl]sulfanyl}methyl octadecyl carbonate] reads 30 nM.
